Measurements taken from patent US9309308B2, “Monoclonal antibodies for tumor treatment” (CURETECH LTD., priority 2008, dated 2016).

Tests used:
[1] = tested on: naïve CD4+CD45RO− T cells; assay: Cell viability assay, human naïve T cells; conditions: hBAT at 1 ug/ml, 72 and 96 hours; FIG. 18
[2] = tested on: human CD4+CD45RO+ effector/memory T cells; assay: Cell viability assay, human effector/memory T cells; conditions: hBAT at 1 ug/ml, 72 and 96 hours; FIG. 18

## hBAT-1: humanized monoclonal antibody with CDRs of murine mBAT-1 and human framework regions
[1]
  survival of lymphocytes (% difference in cell survival): but not that of naïve CD4+CD45RO− lymphocytes
[2]
  survival of lymphocytes (% difference in cell survival): significant effect in enhancing the survival
